Measurements: article PMC4993559 (Journal of Experimental Pharmacology, 2016)
Values joined by “and” are separate entries in the source; they are usually repeats but may differ in a detail not shown here. Equal values may be shown once.

Tests used:
Assay in all cases: HotSpot radioisotope filter-binding kinase assay
Type in all cases: biochemical
FLT3 = FLT3 (Homo sapiens, UniProt P36888)
FLT3 (ITD) = FLT3 (ITD) (Homo sapiens, UniProt P36888, ITD)
FLT3 (D835Y) = FLT3 (D835Y) (Homo sapiens, UniProt P36888, D835Y)
[1] = IC50, recombinant kinase, 10 μM ATP

`C1=C/COCc2cc(ccc2OCCN2CCCC2)Nc2nccc(n2)-c2cccc(c2)COC/1` [Pacritinib, 11-(2-pyrrolidin-1-yl-ethoxy)-14,19-dioxa-5,7,26-triaza-tetracyclo[19.3.1.1(2,6). 1(8,12)]heptacosa-1(25),2(26),3,5,8,10,12(27),16,21,23-decaene] was tested, and the IC50 (FLT3; IC50 (class), Pacritinib scale) was less than 25 nM, the IC50 (FLT3; [1]) was < 50 nM and 14.8 nM and the IC50 (FLT3 (ITD); IC50 (class), Pacritinib scale) was less than 25 nM. The IC50 (FLT3 (ITD); [1]) was 13.4 nM, the IC50 (FLT3 (D835Y); IC50 (class), Pacritinib scale) was less than 25 nM and the IC50 (FLT3 (D835Y); [1]) was 4.7 nM.
